Source: paper PMC9865214, “Unique, Specific CART Receptor-Independent Regulatory Mechanism of CART(55-102) Peptide in Spinal Nociceptive Transmission and Its Relation to Dipeptidyl-Peptidase 4 (DDP4)” (International Journal of Molecular Sciences, 2023)

Test system: DPP4
Assay: DPP4 inhibitor screening assay
Assay type: biochemical
Conditions: fluorogenic Gly-Pro-AMC substrate; ex 355 nm, em 460 nm; triplicates

N[C@@H](CC(=O)N1CCn2c(nnc2C(F)(F)F)C1)Cc1cc(F)c(F)cc1F [Sitagliptin]
DPP4 enzyme activity/inhibition: completely abolished DPP4 enzyme activity
